scFv variants of Ab-91 (heavy chain) against a SARS-CoV-2 spike peptide

Reference: Engelhart et al. 2022, doi:10.1038/s41597-022-01779-4. File: FLAb, binding data.

Target: peptide PDVDLGDISGINAS, taken from heptad repeat 2 (HR2) of SARS-CoV-2 spike.

Parent: Ab-91, a human scFv built as VL, a (GGGGS)3 linker, VH. Only the CDRs of the heavy chain vary.
VL: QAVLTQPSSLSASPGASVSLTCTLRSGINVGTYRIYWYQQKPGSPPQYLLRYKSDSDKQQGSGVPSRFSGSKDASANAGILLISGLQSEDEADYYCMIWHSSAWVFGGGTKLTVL
VH: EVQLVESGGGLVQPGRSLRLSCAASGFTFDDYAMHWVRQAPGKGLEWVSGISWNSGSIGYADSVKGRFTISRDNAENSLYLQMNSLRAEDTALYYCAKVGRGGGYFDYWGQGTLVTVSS

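The library (AAYL51) carries one to three amino acid substitutions per variant, with no insertions or deletions. In AlphaSeq, yeast of one mating type display the scFv and yeast of the other type display the target. Mating (16 h, 30 °C) was followed by selection of diploids and sequencing of their barcodes. The ratio of observed to expected reads was calibrated, replicate by replicate, on BCL2-family standards whose Kd was known from biolayer interferometry. The assay was run in three technical replicates.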

The parent's heavy chain CDRs are GFTFDDYAMH, GISWNSGSIGYADSVK, VGRGGGYFDY; each variant's own CDRs replace them letter for letter. All variants listed here change S55 of the VH, counted from its first residue. Each Kd is an estimate from the mating assay, the geometric mean of the replicates in which the pair was seen; lower is stronger. "nd" means that the variant was in the library but no mating with the target was seen in any replicate; the authors take this as a sign of poor binding, and no number exists.

- GFFFDDYAMH / GINWNGGSIGYADSVK / VGRGGGYFDY -> 850 nM (1 of 3 replicates)
- GFTVDDYAMH / HISWNNGSIGYADSVK / VGRGGGYFDY -> nd (0 of 3 replicates)
- GFTFDDYAMH / GISWNIGSIGDADSVK / VGRGGWYFDY -> nd (0 of 3 replicates)
- GFTFDDYAMH / GISWNPGSIGYADSVK / VGRGGGYRDY -> nd (0 of 3 replicates)
- DFTFDDYAMH / GISWNVGSIGYADSVK / VGRGGPYFDY -> 25 µM (1 of 3 replicates)
- GHTFDDYAMH / GISWNQGSIGYADSVK / VGRGGGGFDY -> 1.6 µM (1 of 3 replicates)
- GFTFDDYAME / GISWNHGSIGYADSVK / VQRGGGYFDY -> 530 µM (3 of 3 replicates)
- GFTFDDYAMH / GISWNFGSIGYADVQK / VGRGGGYFDY -> nd (0 of 3 replicates)
- GFTFDDYAMH / GISWNPGSIGYAKSVK / VGRLGGYFDY -> 220 µM (2 of 3 replicates)
- GFTFDDYAMH / GISWNRGSIGYADSVK / VGRGGGYFDP -> 10 µM (1 of 3 replicates)
- GYTFDDYAMH / GISANPGSIGYADSVK / VGRGGGYFDY -> 3.3 µM (2 of 3 replicates)
- GFTFDDYAMH / GISWNWGSIGYADSVK / VGRGGGYFDY -> 17 µM (2 of 3 replicates)
- GFTFIDYAMH / GISWNTGCIGYADSVK / VGRGGGYFDY -> 1.6 mM (1 of 3 replicates)
- GPTFDDYAMH / GISWNNGSIGYADSLK / VGRGGGYFDY -> 3.5 µM (3 of 3 replicates)
- GFTFDDYAMH / GISWNVGSIGYLDSVK / VGIGGGYFDY -> 18 µM (2 of 3 replicates)
- GFTFDDLAMH / GISWNYGKIGYADSVK / VGRGGGYFDY -> 18 µM (1 of 3 replicates)
- GFTFDDYAMH / GISWNYGSIGYADSVK / VGMGGGYGDY -> nd (0 of 3 replicates)
- GFTFDDYAMH / GISWNWGSIGYDCSVK / VGRGGGYFDY -> 520 µM (2 of 3 replicates)
- GFTFDDYAMG / GISWNTGSIGYDDSVK / VGRGGGYFDY -> nd (0 of 3 replicates)
- GFTFDDYGMH / GISWNTGSIGYADSVK / VGRGGGYFDY -> 14 µM (1 of 3 replicates)
- GFTFDTYAMH / GISWNIGSIGYADSPK / VGRGGGYFDY -> nd (0 of 3 replicates)
- GFTFDDYAMH / GISWNRGSIGYADSLT / VGRGGGYFDY -> 940 nM (1 of 3 replicates)
- GFTFDDYAMH / GISWSWGSIGYADSNK / VGRGGGYFDY -> nd (0 of 3 replicates)
- GFTFDDYAMH / GISWNKGSEGYAGSVK / VGRGGGYFDY -> 35 µM (1 of 3 replicates)
- GFTFDDYAMH / GIKWNDGSIGYADSVK / VGRAGGYFDY -> nd (0 of 3 replicates)
- GFTFDDYAMH / GISWNKGNIGYADSVK / VHRGGGYFDY -> 8.1 µM (1 of 3 replicates)
- GFGFDDTAMH / GISWNVGSIGYADSVK / VGRGGGYFDY -> nd (0 of 3 replicates)
- GFTFDDYEMH / GISWNHGSWGYADSVK / VGRGGGYFDY -> nd (0 of 3 replicates)
- GFTFRDYAMH / GISWNCGSIGYSDSVK / VGRGGGYFDY -> 19 nM (3 of 3 replicates)
- GFTFDDYAMH / GIDWNKGSIGYADSVK / VGRGGCYFDY -> nd (0 of 3 replicates)
- GFTFDDYAMH / GISWNFNSIGYADSVK / VGRGGGYFFY -> nd (0 of 3 replicates)
- GFTFDDYAMH / GISWNQGSIGYADDVK / VGRAGGYFDY -> 41 nM (3 of 3 replicates)
- GFSFDDYAMH / GISWNDGSIGYADSVK / VGRGGGYSDY -> 57 µM (3 of 3 replicates)
- GFTFDDYAMH / GISWNKGSIGYTDSVK / TGRGGGYFDY -> nd (0 of 3 replicates)
- GFTFDDYAME / GISWNTGSIGYADQVK / VGRGGGYFDY -> nd (0 of 3 replicates)
- GFTFDDYAMH / GISWNYGSIGYADSVK / VGRGGHYFDY -> 91 µM (2 of 3 replicates)
- GFTFDDYAMH / GYSWNRGSIGLADSVK / VGRGGGYFDY -> nd (0 of 3 replicates)
- GFTHDDYAMH / GISWNPGSIGYADSVK / VGRGGGYLDY -> 94 µM (2 of 3 replicates)
- GFTFDDYAMH / GISWNPGSIGYADSVK / VGNGGGVFDY -> 170 µM (2 of 3 replicates)
- GFTFDDYAMH / GISWNKQSIGYADSVK / VGRGGGYFDY -> 4.7 µM (2 of 3 replicates)
- GFTFDDYAMH / GISWNFMSWGYADSVK / VGRGGGYFDY -> nd (0 of 3 replicates)
- GFTFDWYAMH / GISWNPGSIGYADSVK / VGRGGGYFRY -> nd (0 of 3 replicates)

Top 5 of the variants detected in all replicates, tightest first:

| CDR-H1 | CDR-H2 | CDR-H3 | Kd | replicates with signal |
|---|---|---|---|---|
| GFTFRDYAMH | GISWNCGSIGYSDSVK | VGRGGGYFDY | 19 nM | 3/3 |
| GFTFDDYAMH | GISWNQGSIGYADDVK | VGRAGGYFDY | 41 nM | 3/3 |
| GPTFDDYAMH | GISWNNGSIGYADSLK | VGRGGGYFDY | 3.5 µM | 3/3 |
| GFSFDDYAMH | GISWNDGSIGYADSVK | VGRGGGYSDY | 57 µM | 3/3 |
| GFTFDDYAME | GISWNHGSIGYADSVK | VQRGGGYFDY | 530 µM | 3/3 |

As a blank, each scFv also met three strains without target: over library AAYL51, 21% of these pairings were detected, typically at 34 µM and seldom below 1.8 µM. Parent in this assay: reference entry 72 nM, copy in this library 7.5 nM.